The results in this text go back to PubChem BioAssay AID1159607 (Small Molecule Screening Facility, UW Madison, 2016).

Where “and” joins values, the source holds several entries; their conditions need not be identical. Identical values can stand only once. This is a selection; strong and weak results do not stand in their true shares. Calls of active or inactive are those of the source. No stated cut-off is given here; in the data, active means FP signal below about 40; inactive means the rest.

In this experiment the test system is RMI core complex (RMI1/RMI2) binding to FANCM MM2 peptide, human. As to the kind of experiment: disruptors of RMI1/RMI2 association with MM2 peptide – biochemical, fluorescence polarization, human, primary screen (AID 1159607). Conditions: RMI core complex with F-MM2 peptide, at 33 µM, stronger effect = lower value. For orientation: In fluorescence polarisation assays a small probe gives low polarisation when free and higher when bound to something large.
Turning to `Cc1sc2nc3n(c(=O)c2c1C)CC(CI)S3` (stereo not drawn), the FP signal (polarization) was inactive: 79. `COc1ccc(NC(=NP(=O)(N2CCOCC2)N2CCOCC2)N2CCOCC2)cc1`: the FP signal (polarization) is inactive: 55. Next, `O=P(N=c1nc(-c2ccccc2)n(-c2ccccc2)s1)(N1CCOCC1)N1CCOCC1`: inactive: 61; `COC1=NP(OC)(OC)=Nc2c1sc(=NC(=Nc1ccccc1)c1ccc(OC)cc1)n2-c1ccccc1`: inactive: 48. Consider `NC(=O)Nc1ccc([As](=O)(O)O)cc1`, for which the FP signal (polarization) is inactive: 60. As for `CN(C(=O)Cc1ccccc1)[C@@H]1CC[C@]2(CCCO2)C[C@H]1N1CCCC1`, the figure is inactive: 59; as for `O=C(NC(Sc1ccc(Cl)cc1)C(Cl)(Cl)Cl)c1ccccc1Cl` (stereo not drawn), inactive: 66; as for `CC(=O)NC(SC1=NCCS1)C(Cl)(Cl)Cl` (stereo not drawn), inactive: 60. Regarding `CCOP(=O)(Nc1cccc2ccccc12)OCC`, the FP signal (polarization) was inactive: 65. For the compound `CN(C(=O)Cc1ccc(Cl)c(Cl)c1)[C@@H]1CC[C@]2(CCCO2)C[C@H]1N1CCCC1`, the FP signal (polarization) is inactive: 60. Next, `O=C(OC1CN2CCC1CC2)c1ccc(Cl)cc1` (stereo not drawn): inactive: 57. Next, `CN(C(=O)Cc1ccc(Cl)c(Cl)c1)[C@@H]1CCCC[C@H]1N1CCCC1`: inactive: 57; `O=c1[nH]c(SCC(Cl)CSc2ccc([N+](=O)[O-])cc2)nc2ccccc12` (stereo not drawn): inactive: 58.

In the case of `CN(CCCl)Cc1cc(Cl)c(NC2=NCCN2)c(Cl)c1`, the FP signal (polarization) is inactive: 62. `O=c1[nH]c(SCC(Cl)CSc2ccccc2)nc2sc3c(c12)CCC3` (stereo not drawn): the FP signal (polarization) is inactive: 62. As for `Cc1cc(C)c(C#N)c(SCC(Br)CBr)n1` (stereo not drawn), the figure is active: -21; as for `O=C1CCCCC1CNCCBr` (stereo not drawn), inactive: 61; as for `CCOC(=O)/C(=N\Nc1ccc([N+](=O)[O-])cc1)N1CC1`, inactive: 55. `CCOc1ccc(Nc2c([N+](=O)[O-])cc(C(F)(F)F)cc2[N+](=O)[O-])c([N+](=O)[O-])c1`: the FP signal (polarization) is inactive: 55. Regarding `CN(C(=O)Cc1ccc(Cl)c(Cl)c1)[C@@H]1CCCC[C@@H]1N1CCCC1`, the FP signal (polarization) is inactive: 61. For `Cc1cc(NC(=O)COC(=O)C2(O)c3ccccc3-c3ccccc32)no1`, the FP signal (polarization) was inactive: 62. Turning to `CN(C(=O)Cc1ccc(Cl)c(Cl)c1)[C@H]1CCCC[C@@H]1N1CCCC1`, the FP signal (polarization) is inactive: 52 and inactive: 60. As for `O=C(CCNCCCl)c1ccccc1`, the figure is inactive: 64.
